Like-named read-outs stand apart in the source and are kept apart here.
Key:
human α2A‐adrenoceptor [1] = target: T1, human α2A‐adrenoceptor (Homo sapiens, UniProt P08913); details: for IC50: Log IC50 (Gi); for EC50: Log EC50 (Gs)
human α2C‐adrenoceptor [2] = target: T2, human α2C‐adrenoceptor (Homo sapiens, UniProt P18825); details: for IC50: Log IC50 (Gi), CRE‐SPAP (with forskolin)
human α2A‐adrenoceptor [3] = target: T1, human α2A‐adrenoceptor; test: 3H‐rauwolscine whole cell binding in CHO‐α2A cells
human α2C‐adrenoceptor [4] = target: T2, human α2C‐adrenoceptor; test: 3H‐rauwolscine whole cell binding in CHO‐α2C cells; details: for Kd: Log KD

Chains of the proteins cited; added tags and fusions are not shown.
UniProt P08913, whole entry: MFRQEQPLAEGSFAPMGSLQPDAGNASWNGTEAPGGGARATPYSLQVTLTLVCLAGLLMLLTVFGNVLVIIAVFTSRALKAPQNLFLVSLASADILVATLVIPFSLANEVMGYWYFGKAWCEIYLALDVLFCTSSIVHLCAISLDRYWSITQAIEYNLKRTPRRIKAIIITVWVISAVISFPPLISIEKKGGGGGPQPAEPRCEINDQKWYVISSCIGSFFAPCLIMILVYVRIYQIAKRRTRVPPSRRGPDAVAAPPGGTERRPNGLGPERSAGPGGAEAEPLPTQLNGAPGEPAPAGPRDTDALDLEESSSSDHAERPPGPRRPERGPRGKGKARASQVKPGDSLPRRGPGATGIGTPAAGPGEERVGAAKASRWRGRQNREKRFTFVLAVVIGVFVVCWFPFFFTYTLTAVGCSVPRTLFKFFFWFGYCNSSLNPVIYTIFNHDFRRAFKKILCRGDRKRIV
UniProt P18825, whole entry: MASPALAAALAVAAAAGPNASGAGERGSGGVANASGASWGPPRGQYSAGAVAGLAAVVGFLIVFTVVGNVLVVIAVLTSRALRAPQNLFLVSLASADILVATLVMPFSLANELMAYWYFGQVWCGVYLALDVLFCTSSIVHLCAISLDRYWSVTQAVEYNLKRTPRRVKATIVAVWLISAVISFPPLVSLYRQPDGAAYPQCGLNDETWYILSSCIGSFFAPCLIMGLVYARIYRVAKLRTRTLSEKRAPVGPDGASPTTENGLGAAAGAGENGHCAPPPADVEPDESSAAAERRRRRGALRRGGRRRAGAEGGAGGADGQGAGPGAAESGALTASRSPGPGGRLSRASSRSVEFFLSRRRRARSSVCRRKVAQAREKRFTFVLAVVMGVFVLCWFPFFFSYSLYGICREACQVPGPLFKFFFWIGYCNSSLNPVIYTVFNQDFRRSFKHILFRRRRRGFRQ

SMILES | % inhibition, CRE‐SPAP (with forskolin) (human α2A‐adrenoceptor [1]) [%] | Log EC50 (Gs), CRE‐SPAP (without forskolin) (human α2A‐adrenoceptor [1]) | IC50 (human α2A‐adrenoceptor [1]; CRE‐SPAP (with forskolin)) [nM] | % inhibition, CRE‐SPAP (with forskolin) (human α2C‐adrenoceptor [2]) [%] | Log EC50 (Gs), CRE‐SPAP (without forskolin) (human α2C‐adrenoceptor [2]) | IC50 (human α2C‐adrenoceptor [2]) [nM] | Kd (human α2A‐adrenoceptor [3]; Log KD (binding)) [nM] | Kd (human α2C‐adrenoceptor [4]) [nM] | Log efficacy ratio (KD/IC50) (human α2A‐adrenoceptor [1]) | Log efficacy ratio (KD/IC50) (human α2C‐adrenoceptor [2]) | Selectivity ratio α2A vs α2B (higher affinity for α2A) (human α2A‐adrenoceptor [3]) | Selectivity ratio α2A vs α2C (higher affinity for α2A) (human α2A‐adrenoceptor [3]) | Kd (human α2A‐adrenoceptor [3]; Log KD, CHO‐α2A) [nM] | Kd (human α2C‐adrenoceptor [4]; CHO‐α2C) [nM] | EC50 (human α2A‐adrenoceptor [1]; CRE‐SPAP (with forskolin)) [nM] | EC50 (human α2A‐adrenoceptor [1]; CRE‐SPAP (without forskolin)) [nM] | Selectivity ratio α2B vs α2C (higher affinity for α2C) (human α2C‐adrenoceptor [4]) | Selectivity ratio α2A vs α2C (higher affinity for α2C) (human α2C‐adrenoceptor [4])
CC(C)C[C@H]1C(=O)N2CCC[C@H]2[C@]2(O)O[C@](NC(=O)[C@@H]3C=C4c5cccc6[nH]c(Br)c(c56)C[C@H]4N(C)C3)(C(C)C)C(=O)N12 [Bromocriptine] | 58.1 ± 3.8 | No response | 5.25 | 62.3 ± 10.0 | No response | 37.2 | 5.62 | 23.4 | – | – | – | – | – | – | – | – | – | –
Cc1cccc(Cc2c[nH]cn2)c1C [Detomidine] | 82.6 ± 3.6 | No response | 4.07 | 80.8 ± 4.5 | No response | 3.31 | 38.9 | 77.6 | 0.98 | 1.37 | 1.8 | 2.0 | 38.9 | 77.6 | – | – | – | –
Clc1ccc2nsnc2c1NC1=NCCN1 [Tizanidine] | – | – | 25.7 | – | – | – | 1070 | – | 1.62 | 0.69 | 1.5 | 1.4 | 1070 | – | 1510 | 1410 | 1.1 | –
CC(N)C(O)c1ccc(O)c(O)c1 (stereo not drawn) [α‐methylnorepinephrine] | – | – | – | – | – | – | – | – | 2.78 | 1.36 | – | – | – | – | – | – | 22.9 | 29.5

From paper PMC9471048
